Laboratory results taken from US4770870A, “Method for reducing pain associated with the administration of 4-sulfido-oxazaphosphorines and 4-sulfoalkylthio-oxazaphorphorines” (Asta Pharma Aktiengesellschaft, priority 1981, dated 1988).

Key:
S180 cancer cells = assay: S180 tumor, ascites form, NMRI-mouse, intraperitoneal chemotherapy
Yoshida sarcoma = assay: Isolated perfusion of tumor carrying rat legs; conditions: P1 alone

## O=P1(N(CCCl)CCCl)NC(SCCO)CCO1 (stereo not drawn)
S180 cancer cells; 30 days observation
  TI50: 13
S180 cancer cells; 60 days observation
  TI50: 9.7
S180 cancer cells; single intraperitoneal, 3 days after transplantation, mole ratio 1:5 for combination
  CD50: 18 mg/kg
Yoshida sarcoma; 2000 nmoles/ml
  healing (animals): healing with two of the 4 animals
  tumor growth: retardation of the growth of the tumor
Yoshida sarcoma; 5000 nmoles/ml
  animals died after the perfusion: two
